scFv variants of Ab-14 (heavy chain) against a SARS-CoV-2 spike peptide

Target peptide (SARS-CoV-2 spike, HR2 region): PDVDLGDISGINAS

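The starting antibody came from a phage panning campaign against this peptide. The library (AAYL49) carries one to three amino acid substitutions per variant, with no insertions or deletions. The scFvs were displayed on barcoded MATa yeast, the peptide on MATalpha yeast. Binding brings cells together so that they mate, and sequencing counts the barcode pairs among the diploids. Read counts were normalised to the haploid input and turned into Kd by a linear fit to BCL2-family pairs of known affinity, for each replicate. There are three technical replicates.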

Each scFv is VH, a (GGGGS)3 linker, VL, as in the parent Ab-14, and differs from it in the CDRs of the heavy chain only.
VH: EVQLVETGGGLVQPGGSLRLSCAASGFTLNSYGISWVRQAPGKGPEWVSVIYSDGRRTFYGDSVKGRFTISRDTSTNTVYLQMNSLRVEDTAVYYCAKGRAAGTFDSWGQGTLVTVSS
VL: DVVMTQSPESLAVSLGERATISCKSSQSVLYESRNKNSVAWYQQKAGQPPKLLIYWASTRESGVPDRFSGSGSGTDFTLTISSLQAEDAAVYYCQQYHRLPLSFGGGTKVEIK

Positions count from residue 1 of the parent VH; T28K puts K in place of T. Scale: log10 of Kd in nM, estimated from mating counts; low values are strong binders. A mean of the replicates is given; it leaves out those without a signal. An entry "n.d." has no value in the source: the pair was not observed among the diploids in that replicate. This suggests poor binding but is not conclusive. For reference, the parent read 0.65 as the reference entry and 4.11 (one replicate of three) as a member of this library. As a blank, each scFv also met three strains without target: over library AAYL49, 15% of these pairings were detected, typically at 4.06 and seldom below 2.83. Also given: how often the same scFv was detected with the empty control strains, with their mean in brackets.

| changes | replicates, log10 nM | mean log10 Kd (nM) | control signals |
|---|---|---|---|
| T28K+R100P+G103D | 1.30 / 1.47 / 1.42 | 1.40 | 1 of 9 (3.14) |
| G26S+I51A+Y52S | n.d. / n.d. / n.d. | n.d. | 0 of 9 |
| F27D+L29N+F59T | 3.34 / n.d. / n.d. | 3.34 | 0 of 9 |
| S35I+R57C | n.d. / 3.44 / 4.70 | 4.07 | 1 of 9 (4.54) |
| F27E+I51F+D54W | n.d. / n.d. / n.d. | n.d. | 0 of 9 |
| G99P+F105C+D106W | 3.23 / 2.59 / 2.14 | 2.65 | 2 of 9 (4.11) |
| T28L+G33D | 6.00 / n.d. / 3.08 | 4.54 | 2 of 9 (3.08) |
| S35N+I51Y+D62Q | n.d. / n.d. / n.d. | n.d. | 0 of 9 |
| F27A+F59Q+G103D | n.d. / n.d. / 4.11 | 4.11 | 1 of 9 (4.74) |
| G33Y+F105Q+S107A | n.d. / n.d. / n.d. | n.d. | 0 of 9 |
| A101S+D106R | 0.95 / 0.92 / 1.38 | 1.08 | 2 of 9 (4.18) |
| S35D+D62P | n.d. / n.d. / n.d. | n.d. | 4 of 9 (3.94) |
| I34Y+G55K+S63G | n.d. / n.d. / n.d. | n.d. | 0 of 9 |
| G61L+G99A+A102L | n.d. / 3.25 / 3.78 | 3.52 | 2 of 9 (3.68) |
| Y32N+V64I+G99M | n.d. / 4.33 / 3.76 | 4.04 | 2 of 9 (4.79) |
| I34K+F59L+G99T | n.d. / n.d. / n.d. | n.d. | 1 of 9 (4.83) |
| T58Q+R100A+G103N | n.d. / 4.27 / n.d. | 4.27 | 0 of 9 |
| I34C+G61N+A102T | n.d. / 3.15 / 5.71 | 4.43 | 5 of 9 (4.59) |
| S31K+G33C+R57C | n.d. / 4.42 / n.d. | 4.42 | 3 of 9 (4.87) |
| A101R+G103T+T104C | n.d. / n.d. / n.d. | n.d. | 2 of 9 (5.07) |
| V50G+I51R+Y60F | 4.52 / 3.15 / n.d. | 3.84 | 1 of 9 (3.06) |
| N30M+Y52L+T58D | 3.55 / n.d. / 4.05 | 3.80 | 1 of 9 (3.85) |
| L29Q+V64L+S107C | 3.58 / n.d. / n.d. | 3.58 | 2 of 9 (3.20) |
| S31G+G33V+F59P | n.d. / n.d. / n.d. | n.d. | 0 of 9 |
| T28V+Y60G+S63D | 4.04 / n.d. / n.d. | 4.04 | 1 of 9 (3.85) |
| Y32V+V50T+G61Q | n.d. / n.d. / n.d. | n.d. | 1 of 9 (3.92) |
| G55I+K65D+R100Q | 5.01 / 4.40 / 4.63 | 4.68 | 6 of 9 (3.94) |
| Y32V+R57N+G99D | n.d. / n.d. / n.d. | n.d. | 0 of 9 |
| L29S+T58V+F59D | n.d. / n.d. / 4.31 | 4.31 | 1 of 9 (3.99) |
| R56V+Y60M+K65H | n.d. / 3.53 / n.d. | 3.53 | 2 of 9 (3.55) |
| S31N+S63E+S107H | 0.60 / 0.87 / 0.49 | 0.65 | 1 of 9 (3.01) |
| D106E+S107D | 0.81 / 0.76 / 0.76 | 0.78 | 0 of 9 |
| V64F+K65V+G103N | n.d. / 3.92 / n.d. | 3.92 | 0 of 9 |
| G55V+R57G | n.d. / 2.73 / n.d. | 2.73 | 1 of 9 (3.36) |
| G55I+G61A+A101Q | n.d. / n.d. / n.d. | n.d. | 3 of 9 (3.59) |
| I51A+G55V+R56K | n.d. / n.d. / n.d. | n.d. | 0 of 9 |
| S63W+G99Y+T104D | n.d. / n.d. / n.d. | n.d. | 0 of 9 |
| L29T+Y52S+T58R | n.d. / n.d. / n.d. | n.d. | 0 of 9 |
| Y52I+F59I+D62F | n.d. / n.d. / n.d. | n.d. | 0 of 9 |
| I34V+V50E+D62S | n.d. / n.d. / n.d. | n.d. | 0 of 9 |
| I51W+A101P+A102Q | n.d. / n.d. / n.d. | n.d. | 2 of 9 (3.75) |
| G61R+V64D+D106S | n.d. / n.d. / n.d. | n.d. | 0 of 9 |
| V50T+D54H+D106G | n.d. / n.d. / 3.15 | 3.15 | 2 of 9 (4.38) |

For reference, 4 entries of the list once more:

| changes | replicates, log10 nM | mean log10 Kd (nM) | control signals |
|---|---|---|---|
| S35D+D62P | n.d. / n.d. / n.d. | n.d. | 4 of 9 (3.94) |
| G55I+K65D+R100Q | 5.01 / 4.40 / 4.63 | 4.68 | 6 of 9 (3.94) |
| Y32V+V50T+G61Q | n.d. / n.d. / n.d. | n.d. | 1 of 9 (3.92) |
| F27D+L29N+F59T | 3.34 / n.d. / n.d. | 3.34 | 0 of 9 |

Data: MIT Lincoln Laboratory AlphaSeq set, Engelhart et al. 2022, doi:10.1038/s41597-022-01779-4, as distributed in FLAb.